# Test results from US5028411A, “Pharmaceutical compositions” (priority 1984, dated 1991).
# Test: Ksol, ability to solubilise iron(III) hydroxide
# Format: physicochemical
# Conditions: must be >0 to solubilise iron(III) hydroxide
# From the text: In order to solubilise iron(III) hydroxide, log Ksol must be greater than 0.
substance,measurement,value
apotransferrin,log Ksol,6.0
